Measured values published in patent US11229675B2, “Therapeutic peptides for excitatory neurotoxicity-related injuries” (Biocells (Beijing) Biotech Co., Ltd., priority 2016, dated 2022).

The chains behind the UniProt entries cited, without tags or fusion partners. Residues count along the entry.
UniProt P78352, 61-249: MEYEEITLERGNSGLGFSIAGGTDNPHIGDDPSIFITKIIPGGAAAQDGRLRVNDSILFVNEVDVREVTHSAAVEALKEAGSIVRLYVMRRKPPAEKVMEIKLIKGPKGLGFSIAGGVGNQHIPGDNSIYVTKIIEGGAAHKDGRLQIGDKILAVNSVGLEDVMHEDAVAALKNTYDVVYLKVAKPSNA

Target: PDZ1/2 domain (Homo sapiens, UniProt P78352)
Assay: biochemical

For CC[C@H](C)[C@H](NC(=O)[C@H](CCC(=O)O)NC(=O)[C@@H](NC(=O)[C@H](CC(=O)O)NC(=O)[C@H](CC(C)C)NC(=O)[C@H](CC(C)C)NC(=O)[C@H](CCCCN)NC(=O)[C@H](CCC(=O)O)NC(=O)[C@H](Cc1ccc(O)cc1)NC(=O)[C@H](CCCNC(=N)N)NC(=O)[C@H](CCCNC(=N)N)NC(=O)[C@H](CCCNC(=N)N)NC(=O)[C@H](CCC(N)=O)NC(=O)[C@H](CCCNC(=N)N)NC(=O)[C@H](CCCNC(=N)N)NC(=O)[C@H](CCCCN)NC(=O)[C@H](CCCCN)NC(=O)[C@H](CCCNC(=N)N)NC(=O)CNC(=O)[C@@H](N)Cc1ccc(O)cc1)[C@@H](C)O)C(=O)O [P5], the Kd was 0.0299 µM.
